Data: paper PMC3171608 (Bioorganic & medicinal chemistry, 2011)

Test system: chromokinesin
Conditions: panel of mitotic kinesins; data not shown

With `N[C@H](CO)CSC(c1ccccc1)(c1ccccc1)c1ccccc1` [Compound 4, (R)-2-amino-3-(tritylthio)propan-1-ol] the “Inhibitory activity against chromokinesin” value was “no measurable inhibition detected”.
